Measurements as given in patent US20040048237A1 (priority 2002, published 2004).

System: N2A cells stably transfected with presenilin1
Experiment: Killing of N2A cells stably transfected with presenilin1 by MG132

## CC(C)C[C@@H](C=O)NC(=O)[C@H](CC(C)C)NC(=O)[C@H](CC(C)C)NC(=O)OCc1ccccc1 [MG132]
  selective killing of transfected cells: no selective killing
